For experiment [1], the target named is Fibroblast growth factor receptor 1 (Homo sapiens, UniProt P11362). The experiment can be described thus: Inhibition of FGFR1.
Experiment [2] concerns the target Vascular endothelial growth factor receptor 1 (Homo sapiens, UniProt P17948). As to the kind of experiment: Inhibition of VEGFR1.

Chains of the proteins cited; added tags and fusions are not shown.
UniProt P11362, whole entry: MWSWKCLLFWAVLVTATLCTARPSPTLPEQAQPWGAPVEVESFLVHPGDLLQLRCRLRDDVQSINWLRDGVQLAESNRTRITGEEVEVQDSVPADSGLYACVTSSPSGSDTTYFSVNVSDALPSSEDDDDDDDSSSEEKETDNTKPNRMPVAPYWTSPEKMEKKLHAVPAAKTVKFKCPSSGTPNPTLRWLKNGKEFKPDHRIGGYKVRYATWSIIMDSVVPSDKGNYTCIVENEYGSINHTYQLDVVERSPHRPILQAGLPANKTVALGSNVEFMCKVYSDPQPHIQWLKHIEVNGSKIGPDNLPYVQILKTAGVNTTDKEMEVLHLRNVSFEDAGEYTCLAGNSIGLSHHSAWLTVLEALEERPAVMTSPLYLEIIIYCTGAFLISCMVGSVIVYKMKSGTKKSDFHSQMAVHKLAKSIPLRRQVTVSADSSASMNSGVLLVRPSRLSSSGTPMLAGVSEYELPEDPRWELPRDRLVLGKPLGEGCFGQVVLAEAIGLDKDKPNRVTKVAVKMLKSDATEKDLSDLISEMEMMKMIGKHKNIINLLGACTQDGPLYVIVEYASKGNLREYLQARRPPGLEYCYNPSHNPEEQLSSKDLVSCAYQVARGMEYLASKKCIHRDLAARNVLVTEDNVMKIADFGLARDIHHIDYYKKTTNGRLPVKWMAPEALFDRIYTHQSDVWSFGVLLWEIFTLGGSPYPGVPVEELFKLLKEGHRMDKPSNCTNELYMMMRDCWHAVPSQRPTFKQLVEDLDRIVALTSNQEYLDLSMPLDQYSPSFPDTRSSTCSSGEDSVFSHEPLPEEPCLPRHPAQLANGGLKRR
UniProt P17948, whole entry: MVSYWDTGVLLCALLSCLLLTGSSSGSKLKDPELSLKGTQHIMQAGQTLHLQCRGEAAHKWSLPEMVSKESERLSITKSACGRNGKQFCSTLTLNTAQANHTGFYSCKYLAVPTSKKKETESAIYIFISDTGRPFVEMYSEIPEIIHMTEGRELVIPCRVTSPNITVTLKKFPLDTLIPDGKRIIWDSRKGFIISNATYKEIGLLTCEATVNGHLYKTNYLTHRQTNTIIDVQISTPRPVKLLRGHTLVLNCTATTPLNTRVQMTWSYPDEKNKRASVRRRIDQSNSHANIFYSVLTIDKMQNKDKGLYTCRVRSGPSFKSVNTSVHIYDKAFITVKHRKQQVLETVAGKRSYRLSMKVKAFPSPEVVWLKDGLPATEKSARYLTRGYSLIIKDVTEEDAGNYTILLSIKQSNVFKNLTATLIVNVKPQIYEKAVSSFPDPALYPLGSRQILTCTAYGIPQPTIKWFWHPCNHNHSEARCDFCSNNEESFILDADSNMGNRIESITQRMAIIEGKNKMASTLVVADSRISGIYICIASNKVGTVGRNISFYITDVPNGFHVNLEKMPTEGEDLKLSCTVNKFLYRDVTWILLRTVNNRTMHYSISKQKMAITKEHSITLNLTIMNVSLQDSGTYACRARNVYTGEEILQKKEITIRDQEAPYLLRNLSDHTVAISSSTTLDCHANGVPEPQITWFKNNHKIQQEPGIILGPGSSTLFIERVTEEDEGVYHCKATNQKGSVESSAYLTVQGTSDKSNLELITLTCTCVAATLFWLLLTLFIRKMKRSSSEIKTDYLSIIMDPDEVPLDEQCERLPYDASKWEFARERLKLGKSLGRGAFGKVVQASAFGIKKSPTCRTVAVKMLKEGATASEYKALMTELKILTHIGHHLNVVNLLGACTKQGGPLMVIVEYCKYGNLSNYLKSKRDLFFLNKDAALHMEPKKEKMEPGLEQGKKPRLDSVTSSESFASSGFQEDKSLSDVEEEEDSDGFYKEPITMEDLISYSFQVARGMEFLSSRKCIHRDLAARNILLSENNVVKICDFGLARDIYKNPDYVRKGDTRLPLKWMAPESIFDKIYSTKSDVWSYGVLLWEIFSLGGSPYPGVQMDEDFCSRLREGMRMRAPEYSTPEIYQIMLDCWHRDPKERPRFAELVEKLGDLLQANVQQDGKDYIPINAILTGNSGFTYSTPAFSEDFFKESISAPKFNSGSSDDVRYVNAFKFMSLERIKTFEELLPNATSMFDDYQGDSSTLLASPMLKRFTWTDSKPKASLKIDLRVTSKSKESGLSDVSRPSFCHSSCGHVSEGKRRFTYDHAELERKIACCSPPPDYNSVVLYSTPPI

In experiment [1], `CC(C)(C)NC(=O)Nc1ccc2[nH]nc(-c3nc4ccc(N5CCC(N6CCCCC6)CC5)cc4[nH]3)c2c1` displayed a 50% inhibitory concentration (IC50) of 1 nM.

Regarding `FC(F)(F)c1ccc2c(-c3nc4ccc(N5CCC(N6CCCCC6)CC5)cc4[nH]3)n[nH]c2c1`, the half-maximal inhibitory concentration (IC50) in experiment [2] and in experiment [1] was 2 nM in each case.

By IC50 is commonly meant the concentration at which inhibition is half-maximal. High values mean a need for much substance, low ones inhibition by little substance.

The values are drawn from ChEMBL document CHEMBL1138908, “Design and structure-activity relationship of 3-benzimidazol-2-yl-1H-indazoles as inhibitors of receptor tyrosine kinases” (Bioorg Med Chem Lett, 2006).
